Values of other authors, collected in patent US20060100168A1, “Method of treating cancer using adenosine and its analogs” (The Trustee of Boston University, priority 2002, published 2006).

The chains behind the UniProt entries cited, without tags or fusion partners.
UniProt P0DMS8, whole entry: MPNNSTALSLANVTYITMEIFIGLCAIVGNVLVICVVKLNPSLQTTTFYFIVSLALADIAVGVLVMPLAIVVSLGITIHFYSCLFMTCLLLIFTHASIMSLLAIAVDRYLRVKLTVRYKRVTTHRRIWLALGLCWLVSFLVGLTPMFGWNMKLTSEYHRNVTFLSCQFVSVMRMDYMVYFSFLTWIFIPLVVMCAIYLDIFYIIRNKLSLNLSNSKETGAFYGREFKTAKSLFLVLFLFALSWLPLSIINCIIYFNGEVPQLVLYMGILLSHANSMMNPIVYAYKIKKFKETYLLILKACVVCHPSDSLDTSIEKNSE

Target: A3 adenosine receptor (Homo sapiens, UniProt P0DMS8)
Conditions: reported (ref. 34); cited from earlier work

CNC(=O)[C@H]1O[C@@H](n2cnc3c(NCc4cccc(I)c4)ncnc32)[C@H](O)[C@@H]1O [IB-MECA, N^6-(3-iodobenzyl)adenosine-5′-N-methyluronamide]
Affinity for A3 adenosine receptor: nanomolar range
